Experimental data reported in patent US20250074871A1, “PHENETHYLAMINES AND METHODS OF PREPARATION THEREOF” (priority 2022, published 2025).

By UniProt entry, the sequences of proteins in these tests, tags left out.
UniProt P41595, whole entry: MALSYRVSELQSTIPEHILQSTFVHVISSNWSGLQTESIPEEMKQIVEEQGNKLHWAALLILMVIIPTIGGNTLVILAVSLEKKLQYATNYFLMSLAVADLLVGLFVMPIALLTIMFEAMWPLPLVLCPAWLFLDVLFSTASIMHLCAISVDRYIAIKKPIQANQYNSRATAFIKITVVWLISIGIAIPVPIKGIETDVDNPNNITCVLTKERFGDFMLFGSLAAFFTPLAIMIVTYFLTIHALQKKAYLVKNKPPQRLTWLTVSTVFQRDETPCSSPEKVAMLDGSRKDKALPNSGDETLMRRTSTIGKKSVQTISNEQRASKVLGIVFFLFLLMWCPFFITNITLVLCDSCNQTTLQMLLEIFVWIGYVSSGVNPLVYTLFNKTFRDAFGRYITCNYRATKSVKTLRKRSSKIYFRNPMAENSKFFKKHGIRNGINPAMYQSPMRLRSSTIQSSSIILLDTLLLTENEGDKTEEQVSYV

Biological target: T1, 5-HT2B receptor (Homo sapiens, UniProt P41595)
T1 construct: expressed in transfected cells; host or cells: HEK293T
Assay: 5-HT2B Gq dissociation BRET functional assay
Format: cell-based
Conditions: 5-HT2B EC50, nM, Table 3 panel

**Q.** How did the EC50 turn out when `CN(C)CCc1c[nH]c2cccc(O)c12` [psilocin, reference compound] was run?
**A.** The EC50 was 2.1 nM.
